Measurements: patent US9435811B2, “Inducer of chondrocyte proliferation and differentiation” (ORIENTAL YEAST CO., LTD, priority 2008, dated 2016)

System: human mesenchymal stem cells
Experiment: Three-dimensional culture using human mesenchymal stem cells
Type: cell-based
Details: 21 days; 40 μM peptide D, 10 ng/ml TGF-β3, 100 ng/ml BMP-2
Description: Chondrocytes are three-dimensionally cultured induce […]. Three dimensional culture system relatively reflected the natural conditions. Human mesenchymal stem cells were seeded at 2.5×10^5 cells in 15-ml tubes (TPP) and the cells were collected by centrifuged at 1,000 rpm and room temperature for 4 minutes. The supernatant was removed and the medium was replaced with 0.5 ml chondrocyte differentiation induction medium (Lonza) with 10 ng/ml TGF-β3 (R&D). The medium was replaced with fresh medium every 3 or 4 days. Simultaneously, peptide D was added at 50 μM and at 150 μM (i.e., a low-dose peptide D group and a high-dose peptide D group). After 14 days, the cells were fixed in 4% PFA (Wako), photographed under a microscope (FIG. 8). A pellet was embedded in paraffin, and the sample slide was prepared, followed by alcian blue staining and safranin 0 staining (FIG. 9).
Subsequently, the synergistic effects of peptide D and TGF-β3 on cartilage formation were examined. 2.5×10^5 human mesenchymal stem cells were cultured in the presence of 40 μM peptide D and 10 ng/ml TGF-β3 with cartilage differentiation induction medium for 21 days. After the pellets were fixed in 4% PFA, the pellet was photographed under a microscope (FIG. 10). After the pellet had been embedded in paraffin, the sample slide was prepared and stained with alcian blue and safranin 0 (FIG. 11). […]

B1: BMP-2: BMP-2 (R&D), protein belonging to the TGF-β superfamily (protein, UniProt P12643 283-396, looked up)
Bone morphogenetic protein 2: QAKHKQRKRLKSSCKRHPLYVDFSDVGWNDWIVAPPGYHAFYCHGECPFPLADHLNSTNHAIVQTLVNSVNSKIPKACCVPTELSAISMLYLDENEKVVLKNYQDMVVEGCGCR
- pellet size: did not change
